From article PMC6943441, “The Meta-Position of Phe^4 in Leu-Enkephalin Regulates Potency, Selectivity, Functional Activity, and Signaling Bias at the Delta and Mu Opioid Receptors” (Molecules, 2019)

By UniProt entry, the sequences of proteins in these tests, tags left out.
UniProt P35372, whole entry: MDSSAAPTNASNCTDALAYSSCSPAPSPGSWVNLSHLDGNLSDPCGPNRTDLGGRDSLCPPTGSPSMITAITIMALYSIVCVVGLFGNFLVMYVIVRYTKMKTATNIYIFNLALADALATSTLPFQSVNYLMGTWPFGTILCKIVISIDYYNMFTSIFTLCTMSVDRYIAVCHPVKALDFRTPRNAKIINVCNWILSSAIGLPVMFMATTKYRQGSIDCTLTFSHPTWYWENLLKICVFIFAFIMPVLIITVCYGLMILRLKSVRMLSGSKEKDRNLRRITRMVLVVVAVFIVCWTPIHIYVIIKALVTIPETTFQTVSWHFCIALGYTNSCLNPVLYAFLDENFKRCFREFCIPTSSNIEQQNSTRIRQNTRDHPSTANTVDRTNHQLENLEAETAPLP

Columns and labels:
µOR [1] = target: T1, µOR (Homo sapiens, UniProt P35372); experiment: Competition radioligand binding, [3H]DAMGO
Method: Next, 100 µL of membrane suspension containing 7 µg protein was added to the agonist wells and incubated for 90 min at room temperature. The reaction mixture was then filtered over a GF-B filter plate (Perkin Elmer) followed by four quick washes with ice-cold 50 mM Tris HCl. The plate was dried overnight, after which 50 µL scintillation fluid (Ultimagold uLLT) was added and radioactivity was counted on a Packard TopCount NXT scintillation counter. All working solutions were prepared in a radioligand assay buffer containing 50 mM Tris HCl, 10 mM MgCl2, and 1 mM ethylenediaminetetraacetic acid at pH 7.4.

µOR [2] = target: T1, µOR; experiment: cell-based
δOR = δOR (Homo sapiens, UniProt P41143); experiment: PathHunter β-arrestin 2 recruitment assay in CHO cells

| Structure (SMILES) | Ki (µOR [1]) [nM] | EC50 (µOR [2]) [nM] | EC50 (δOR) [nM] |
| --- | --- | --- | --- |
| CC(C)C[C@@H](NC(=O)[C@H](Cc1ccccc1)NC(=O)CNC(=O)[C@@H](C)NC(=O)[C@@H](N)Cc1ccc(O)cc1)C(=O)O [DADLE, D-Ala^2, D-Leu^5-enkephalin, reference compound] | 1.58 | 468 | – |
| C[C@@H](NC(=O)[C@@H](N)Cc1ccc(O)cc1)C(=O)NCC(=O)N(C)[C@@H](Cc1ccccc1)C(=O)NCCO [DAMGO, (D-Ala^2, N-MePhe^4, Gly-ol) enkephalin, reference compound] | – | – | > 10000 |
